Measurements: ChEMBL document CHEMBL1132933, “Protease inhibitors: synthesis and QSAR study of novel classes of nonbasic thrombin inhibitors incorporating sulfonylguanidine and O-methylsulfonylisourea moieties at P1” (J Med Chem, 2000)

Biological target: Prothrombin (Homo sapiens, UniProt P00734)
Assay: Inhibitory activity against human thrombin (using Chromozym TH as the substrate)

Structure (SMILES)	Ki
CN(C)S(=O)(=O)N=C(N)N	1200 nM
CC1CNc2c(cccc2S(=O)(=O)N[C@@H](CCCNC(=N)N)C(=O)N2CC[C@@H](C)C[C@@H]2C(=O)O)C1 (some centres not stated) [ARGATROBAN]	19 nM
